Values quoted from earlier work, collected in publication PMC4220016, “The binding characteristics and orientation of a novel radioligand with distinct properties at 5-HT3A and 5-HT3AB receptors” (Neuropharmacology, 2014).

System: 5-HT3 receptor F226A
Settings: ref Thompson et al., 2005; cited from earlier work

In the case of `CN1C2CCCC1CC(NC(=O)c1nn(C)c3ccccc13)C2` (stereo not shown) [Granisetron], the “effect of mutation on binding affinity (in words)” value is listed as “no effect”.
